According to patent US10995260B2, “Methods for determining an optimal surfactant structure for oil recovery” (University of Wyoming, priority 2017, dated 2021):

Columns and labels:
[1] = Cloud point temperature (CPT) of surfactant solutions; format: physicochemical
Method: Investigation on the effect of structural arrangement of POE surfactants including alkyl chain and ethylene oxide on solubility of surfactants was accomplished by cloud point measurements. Surfactant solutions were injected into a Hastelloy measurement cell using a Quizix pump. After reaching reservoir pressure (6840 psi), surfactant solutions were heated using a heating jacket (Glas-col, LLC) firmly wrapped around the measurement cell. The temperature was gradually raised (≈ 0.4° C./min) from ambient temperature to 120° C. (reservoir temperature). A mounted resistance temperature detector (RTD) inside the measurement cell (with accuracy of ±0.1° C.) was used to check the internal temperature. Surfactant solutions were then monitored visually by a digital camera attached to a microscope. The temperature above which surfactant solutions became turbid was identified as the CPT.
The CPTs of certain selected surfactants were also measured at atmospheric pressure in a water bath.

[2] = Dynamic interfacial tension of surfactant solution/crude oil (rising/captive bubble tensiometry); format: physicochemical; conditions: time for IFT to reach half of its value between γo and γm; 0.1% wt surfactant, municipal water/crude oil, ambient conditions
Method: Interfacial tension tests were carried out in accordance with the invention. Dynamic IFT and contact angles were measured using rising/captive bubble tensiometry enhanced by image acquisition with a high-resolution Charged Coupled Device (CCD) digital camera and apochromatically-corrected lens. The apparatus includes a Hastelloy measurement cell, a Hastelloy dual-cylinder pulse-free Quizix pump (to provide constant flow rate and pressure), a temperature control module, a data acquisition computer, an oven, and an in-line density meter (Anton Paar DMA HPM) to measure the density of fluids at actual experimental conditions. The system tolerates reservoir conditions with pressures and temperatures up to 10,000 psi and 150° C., respectively (V. Mirchi, S. Saraji, L. Goual, M. Piri, Dynamic interfacial tension and wettability of shale in the presence of surfactants at reservoir conditions, Fuel, vol. 148, pp. 127-138, 2015). […]
In addition, the dynamic IFT of certain surfactants was measured at reservoir conditions. In particular, the impact of elevated temperatures and pressures on the performance of these surfactants was evaluated. IFT values of crude oil and surfactant solutions were measured at 6840 psi and 120° C. […]

Poly(ethylene glycol)(18) tridecyl ether [EO-18]
aqueous solubility ([1]; solution became cloudy at reservoir temperatures): good aqueous solubility | cloud point temperature (CPT) ([1]; surfactant solution, FIG. 4 at 6840 psi): 109.6 °C | t* [2]: 3.5 min
